Data on 16 compounds can be found in patent US5714615A (priority 1994, dated 1998).

Protein sequences, listed by entry. Tags and fused reporters are not part of them. Residues count along the entry.
UniProt P09483, 31-630 limits assumed: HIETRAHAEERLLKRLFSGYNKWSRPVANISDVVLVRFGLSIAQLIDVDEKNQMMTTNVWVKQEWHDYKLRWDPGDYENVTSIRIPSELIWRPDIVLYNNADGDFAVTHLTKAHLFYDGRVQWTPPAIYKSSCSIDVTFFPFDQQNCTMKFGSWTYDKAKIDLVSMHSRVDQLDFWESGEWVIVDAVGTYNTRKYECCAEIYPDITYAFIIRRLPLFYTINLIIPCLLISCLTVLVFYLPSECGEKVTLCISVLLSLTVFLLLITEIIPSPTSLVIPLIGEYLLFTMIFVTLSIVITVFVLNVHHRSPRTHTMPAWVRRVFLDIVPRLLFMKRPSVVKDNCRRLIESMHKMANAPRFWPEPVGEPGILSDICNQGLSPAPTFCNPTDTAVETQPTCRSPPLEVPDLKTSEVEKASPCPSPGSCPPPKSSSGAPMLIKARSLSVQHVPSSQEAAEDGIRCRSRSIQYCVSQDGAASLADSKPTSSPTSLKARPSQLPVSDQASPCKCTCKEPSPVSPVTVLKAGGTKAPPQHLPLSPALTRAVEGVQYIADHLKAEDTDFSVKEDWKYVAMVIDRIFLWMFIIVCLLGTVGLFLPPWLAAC
UniProt P12390, 25-500 limits assumed: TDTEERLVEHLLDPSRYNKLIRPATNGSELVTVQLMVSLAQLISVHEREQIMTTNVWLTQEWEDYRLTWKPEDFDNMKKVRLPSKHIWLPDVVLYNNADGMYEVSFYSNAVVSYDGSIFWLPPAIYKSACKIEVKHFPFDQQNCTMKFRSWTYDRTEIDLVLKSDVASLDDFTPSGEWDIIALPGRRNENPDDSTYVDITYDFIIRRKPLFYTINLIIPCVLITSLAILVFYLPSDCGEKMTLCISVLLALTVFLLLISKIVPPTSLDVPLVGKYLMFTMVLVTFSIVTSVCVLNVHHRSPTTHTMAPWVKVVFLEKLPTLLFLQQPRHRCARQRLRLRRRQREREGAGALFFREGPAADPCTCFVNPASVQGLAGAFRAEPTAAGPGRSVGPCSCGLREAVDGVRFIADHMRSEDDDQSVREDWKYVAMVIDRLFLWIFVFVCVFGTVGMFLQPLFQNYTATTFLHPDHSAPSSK

For assay [1], the system named is GD. Put plainly: Oral pretreatment against GD in mice. The following applies: for oral pretreatment activity against GD (in words): mouse, in vivo; for % survival: oral.
Assay [2] has as its system GD. Put plainly: Intramuscular pretreatment against GD in mice.
The target of a further assay is nicotinic receptor (Rattus norvegicus, UniProt P09483+P12390). Put plainly: Cortical nicotinic receptor binding, [3H]cytisine displacement. The following applies: high affinity binding.
The next assay deals with DMTS performance. Put plainly: Delayed matching-to-sample (DMTS) task in monkeys.
A further assay has as its system GA. Put plainly: Reactivator activity against GA in mice. It is filed as in vivo, Male ICR mice. The conditions noted are these: 0.009 mmol/kg i.m.

For `C[n+]1cccc(O)c1C=NNC(=O)C[n+]1ccccc1` [Compound 5a, 2-(3-Hydroxy-1-methyl-2-pyridinemethylene)-1-[2-(1-pyridinium)acetyl] hydrazine dichloride], in the assay with GD [1], the “oral pretreatment activity against GD (in words)” value is listed as “not good as an oral pretreatment agent”. In addition, the “% survival” value in the assay on GD [1] (30 min, 730 mmol/kg) is recorded as 40%; in the assay on GD [1] (120 min, 730 mmol/kg), 50%; with GD [2] (15 min, 18-290 mmol/kg i.m.), 70-100%; in the assay on GD [2] (60 min, 18-290 mmol/kg i.m.), 20-70%.
Regarding `C[n+]1cccc(O)c1C=NNC(=O)Nc1ccccc1.[Cl-]` [Compound 3b, 3-Hydroxy-1-methyl-2-[[(N-phenylaminocarbonyl)hydrazono]methyl] pyridinium chloride], the “% survival” value was 0% in the assay with GD [2] (15 min, 1.3 mmol/kg i.m.) and 20% with GD [2] (60 min, 5.2 mmol/kg i.m.).
Turning to `CON=Cc1c(O)ccc[n+]1C` [Compound 1c, O-Methyl-N-(3-hydroxy-1-methyl-2-pyridinemethylene) hydroxylamine chloride], the “% survival” value with GD [1] (120 min, 200 mmol/kg) turned out to be 50%.
As for `C[n+]1cccc(O)c1C=NOCc1ccc(Cl)cc1` [Compound 1d, O-(p-Chlorobenzyl)-N-(3-hydroxy-1-methyl-2-pyridinemethylene) hydroxylamine chloride], the “% survival” value in the assay with GD [2] (15 min, 9.6 mmol/kg i.m.) is given as 10%.
Turning to `COc1ccc(CON=Cc2c(OC(=O)N(C)C)ccc[n+]2C)cc1`, the “% survival” value in the assay on GD [1] (30 min, 2.2 mmol/kg) is 100%; in the assay with GD [1] (120 min, 2.2 mmol/kg), 100%; with GD [2] (15/60 min, 0.005-0.11 mmol/kg i.m.) it was 50-70%.
In the case of `C[n+]1cccc(O)c1C=NO` [Compound 1f], the “% survival” value was 30% with GD [2] (15 min, 310 mmol/kg i.m.) and 20% in the assay on GD [2] (60 min, 77 mmol/kg i.m.).
For the compound `C[n+]1ccccc1C=NNC(=O)C[n+]1ccccc1` [Compound 5b, 2-(1-Methyl-2-pyridinemethylene)-1-[2-(1-pyridinium)acetyl] hydrazine dichloride], the “% survival” value in the assay on GD [2] (15 min, 24 mmol/kg i.m.) is listed as 100%; in the assay on GD [2] (15 min, 96 mmol/kg i.m.), 100%; with GD [2] (60 min, 24 mmol/kg i.m.), 30%; in the assay with GD [2] (60 min, 96 mmol/kg i.m.), 100%.
With `COc1ccc(CON=Cc2c(O)ccc[n+]2C)cc1` [Compound 1e, O-(p-Methoxybenzyl)-N-(3-hydroxy-1-methyl-2-pyridinemethylene) hydroxylamine chloride], the “% survival” value in the assay on GD [2] (15 min, 320 mmol/kg i.m.) was found to be 40%; in the assay on GD [2] (60 min, 81 mmol/kg i.m.), 10%.
Turning to `C[n+]1cc(O)ccc1C=NO` [Compound 1g], the “% survival” value in the assay on GD [2] (15 min, 16 mmol/kg i.m.) is on record as 10%; in the assay with GD [2] (60 min, 260 mmol/kg i.m.) it was 20%.
Take `CN(C)C(=O)Oc1ccc(C=NO)[n+](C)c1`: the “% survival” value in the assay on GD [2] (15 min, 9.0 mmol/kg i.m.) is reported as 90%; in the assay with GD [2] (15 min, 37 mmol/kg i.m.), 90%; in the assay on GD [2] (15 min, 150 mmol/kg i.m.) it was 50%; in the assay with GD [2] (60 min, 9.0 mmol/kg i.m.) it was 90%; with GD [2] (60 min, 37 mmol/kg i.m.), 70%; with GD [2] (60 min, 150 mmol/kg i.m.) it was 0%.
With `C[n+]1cccc(O)c1C=NOCc1ccccc1` [Compound 1b, O-Benzyl-N-(3-hydroxy-1-methyl-2-pyridinemethylene) hydroxylamine chloride], the “% survival” value in the assay on GD [1] (30 min, 60 mmol/kg) was found to be 30%; with GD [1] (120 min, 60 mmol/kg) it was 70%; in the assay with GD [2] (15 min, 22 mmol/kg i.m.) it was 0%; with GD [2] (60 min, 22 mmol/kg i.m.), 10%.
As to `CN(C)C(=O)Oc1ccc[n+](C)c1C=NNC(=O)Nc1ccccc1`, on nicotinic receptor, the “potency less than carbachol” value was “about 30 fold”. For the same compound, the “potency less than nicotine” value on nicotinic receptor is “about 600 fold”. Besides, in the assay with DMTS performance (11 monkeys, i.m.), the average best dose was 0.054 ± 0.008 mg/kg. Besides, the “choice latencies in DMTS” value in the assay on DMTS performance (30, 60 and 100 μg/kg i.m.) was “no significant effect”. Further, the “improvement above baseline at long delay intervals” value in the assay on DMTS performance (best dose 30-100 μg/kg i.m., 11 monkeys) is listed as 18 percentage points. Moreover, the “improvement as percent of baseline DMTS performance” value with DMTS performance (best dose, i.m.) was determined as 32.2%. Further, the “increase in DMTS performance” value in the assay with DMTS performance (over 2-3 doses) is “up to 14 % points”. Moreover, the “% survival” value in the assay on GD [1] (30 min, 10 mmol/kg) was 70%; with GD [1] (120 min, 10 mmol/kg) it was 100%; in the assay on GD [2] (15 min, 0.65 mmol/kg i.m.) it was 90%; in the assay on GD [2] (15 min, 2.7 mmol/kg i.m.), 90%; in the assay on GD [2] (15 min, 11 mmol/kg i.m.) it was 40%.
Turning to `CN(C)C(=O)Oc1ccc[n+](C)c1C=NNC(N)=O`, the “% survival” value came out at 50% with GD [2] (15 min, 0.2 mmol/kg i.m.); 80% in the assay with GD [2] (15 min, 0.6 mmol/kg i.m.); 80% in the assay with GD [2] (15 min, 2.3 mmol/kg i.m.); 90% with GD [2] (60 min, 0.2 mmol/kg i.m.); 100% with GD [2] (60 min, 0.6 mmol/kg i.m.); 80% in the assay on GD [2] (60 min, 2.3 mmol/kg i.m.).
In the case of `CN(C)C(=O)Oc1ccc[n+](C)c1C=NOCc1ccccc1`, the “% survival” value with GD [1] (30 min, […]) is 90%; in the assay on GD [1] (120 min, […]), 80%; in the assay on GA, 30%; in the assay with GD [2] (15/60 min, 0.009-0.14 mmol/kg i.m.), 80-90%.
For the compound `CN(C)C(=O)Oc1ccc[n+](C)c1C=NOC(c1ccccc1)c1ccccc1`, the “% survival” value is on record as 90% in the assay on GD [1] (30 min, 120 mmol/kg); 100% in the assay with GD [1] (120 min, 120 mmol/kg); 90% with GD [2] (15 min, 0.30 mmol/kg i.m.); 30% with GD [2] (15 min, 5.4 mmol/kg i.m.).
Take `CN(C)C(=O)Oc1ccc[n+](C)c1` [Pyridostigmine, pyridostigmine]: the “oral pretreatment activity against GD (in words)” value in the assay on GD [1] was “no survival”. Also, the “mice surviving, positive control” value with GD [2] (pretreatment, 2×LD50 GD) was 80-100%.
